{
  "sequences": {"note": "Amino acid sequences for entries named in this document (tags omitted).", "UniProt P97266, whole entry, looked up": "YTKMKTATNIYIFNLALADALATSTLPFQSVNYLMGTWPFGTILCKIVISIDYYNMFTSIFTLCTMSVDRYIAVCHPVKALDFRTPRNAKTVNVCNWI"},
  "source": "ChEMBL document CHEMBL2331145",
  "about": "“Orvinols with mixed kappa/mu opioid receptor agonist activity” (2013)",
  "target": "Mu-type opioid receptor (Cavia porcellus, UniProt P97266)",
  "experiment": "Displacement of [3H]DAMGO from MOR in Hartley guinea pig membrane",
  "data": [
    {"smiles": "CO[C@@]12CC[C@@]3(C[C@@H]1[C@](C)(O)C(C)(C)C)[C@H]1Cc4ccc(O)c5c4[C@@]3(CCN1CC1CC1)[C@H]2O5", "values": [
      {"measurement": "Ki", "value": 0.4, "unit": "nM"}
    ]}
  ]
}
